The text below walks through data of PubChem BioAssay AID540308 (The Scripps Research Institute Molecular Screening Center, 2011).

Chains of the proteins cited; added tags and fusions are not shown.
UniProt P32245, whole entry, looked up: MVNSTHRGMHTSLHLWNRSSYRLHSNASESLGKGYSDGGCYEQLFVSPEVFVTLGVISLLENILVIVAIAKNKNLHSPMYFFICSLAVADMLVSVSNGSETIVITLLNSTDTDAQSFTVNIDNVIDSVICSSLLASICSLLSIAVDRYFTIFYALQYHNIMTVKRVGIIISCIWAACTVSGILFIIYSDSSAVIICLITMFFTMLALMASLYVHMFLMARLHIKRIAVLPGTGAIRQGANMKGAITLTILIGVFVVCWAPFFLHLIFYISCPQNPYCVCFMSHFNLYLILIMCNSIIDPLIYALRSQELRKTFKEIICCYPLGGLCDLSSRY

Only a part is listed here, and it is no random draw. The source made the active and inactive calls.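 The calls were made as follows: active = activation above a per-plate cutoff, the mean activation of sample wells on that plate plus 3 SD (cut at about 8% in these data); inactive = the rest.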

For this experiment, the target named is Melanocortin receptor 4 (Homo sapiens) (UniProt P32245). As to the kind of experiment: activators of MC4R beta-arrestin recruitment – cell-based, luminescence, agonist arm of biased-ligand search, primary screen (AID 540308). The note with it: U2OS MC4R beta-arrestin complementation, at 8.9 µM, stronger effect = higher value, percent of melanotan II response, DMSO zero.
Take `Cc1ccc(NP(=O)(Oc2cccc(C)c2)Oc2cccc(C)c2)nc1`: the activation is inactive: -1.37%.

`c1ccc(-c2nn[nH]n2)c(-c2nn[nH]n2)c1`: the activation was inactive: 1.87%.

Consider `CCNC(=S)/N=C(\N)N[N+](=O)[O-]`, for which the activation was inactive: -4.19%.

For `O=C(NC1CCS(=O)(=O)C1)NP(=S)(Oc1ccccc1)Oc1ccccc1` (stereo unspecified), the activation is inactive: -1.28%.

On to `O=P1(N(CCCl)CCCl)OCCC2CCCCN21` (stereo unspecified), for which the activation is inactive: -1.71%.

Turning to `CCC(=O)N1C2C3N(C(=O)CC)C1C1N(C(=O)CC)C(C(N1C(=O)CC)N3C(=O)CC)N2C(=O)CC`, the activation was inactive: -0.78%.

`O=C(OC1CN2CCC1CC2)c1ccccc1` (stereo unspecified): the activation is inactive: -0.87%.

As for `Cc1ccc(OP(=O)(Nc2ccccn2)Oc2ccc(C)cc2)cc1`, the activation is inactive: -1%.

`CC(=O)NC(SC(=S)N(CC(C)C)CC(C)C)C(Cl)(Cl)Cl` (stereo unspecified): the activation is inactive: -0.84%.

As to `COC(=O)c1cc2c(s1)N=C(c1ccccc1)N(C)P2(=O)N1CCOCC1` (stereo unspecified), the activation was inactive: -0.3%.

Take `O=c1c2cc([N+](=O)[O-])ccc2[nH]c2c([N+](=O)[O-])cc([N+](=O)[O-])cc12`: the activation is inactive: -4.28%.

`CN(C)C(=O)Oc1noc2ccccc12`: the activation was inactive: 0.37%.

As for `CC(NC(=O)COC(=O)C(O)(c1ccccc1)c1ccccc1)c1ccccc1` (stereo unspecified), the activation is inactive: -1.92%.

As for `Cc1ccccc1OP(=O)(Nc1ccccn1)Oc1ccccc1C`, the activation is inactive: 2.98%.

For `CCOc1ccc(C2=NCC(CBr)S2)cc1` (stereo unspecified), the activation was inactive: -0.43%.

Consider `O=P1(Nc2nc3ccc(Cl)cc3s2)COc2ccccc2O1` (stereo unspecified), for which the activation was inactive: -1.42%.

For `CC(C)(C)C(=O)NC(Sc1ccccc1)C(Cl)(Cl)Cl` (stereo unspecified), the activation was inactive: 1.17%.

In the case of `CCc1cc(O)c([N+](=O)[O-])c(C)c1[N+](=O)[O-]`, the activation is inactive: -0.86%.

`C[C@H]1OP(=O)(Oc2ccccc2)C[C@@H]2O[C@@H]21` (stereo partly specified): the activation is inactive: -0.93%.

Consider `C[C@@H]1C=CCP(=O)(Oc2ccccc2)O1` (stereo partly specified), for which the activation is inactive: -1.15%.

For `Cc1ccccc1CN(C)C(=O)COC(=O)C(O)(c1ccccc1)c1ccccc1`, the activation is inactive: 5.7%.

As to `COC(=O)C1(C)COP(=O)(NCc2ccccc2)OC1` (stereo unspecified), the activation was inactive: -0.8%.

Consider `CC(=O)c1ccc(N2CC2c2ccncc2)cc1` (stereo unspecified), for which the activation was inactive: 0.71%.

Take `N#C/C(=C\c1ccc(N(CCBr)CCBr)cc1)C(N)=O`: the activation is inactive: -1.02%.

With `CC(=O)Nc1ccc(Oc2c([N+](=O)[O-])cc([N+](=O)[O-])cc2[N+](=O)[O-])cc1`, the activation was inactive: -4.24%.

As for `CC(=O)Nc1ccc([As](=O)(O)O)c(O)c1`, the activation was inactive: -1.59%.

Regarding `CC(C)C(=O)NC(Sc1ccccc1)C(Cl)(Cl)Cl` (stereo unspecified), the activation is inactive: 2.12%.

With `O=P(Nc1nccs1)(c1ccccc1)c1ccccc1`, the activation was inactive: -1.62%.

Consider `c1nnnn1CCn1cnnn1`, for which the activation was inactive: -0.14%.

In the case of `COc1ccc(C[C@H](C)NC[C@@H](O)c2ccc(O)c(NC=O)c2)cc1`, the activation is inactive: 1.47%.

For `O=P(Nc1ccccn1)(c1ccc(Br)cc1)c1ccc(Br)cc1`, the activation is inactive: 2.46%.

On to `CN(C)C1(CNC(=O)c2ccc(Cl)c(S(N)(=O)=O)c2)CCCCC1`, for which the activation is inactive: -2.17%.

With `COc1ccc(N)c([N+](=O)[O-])c1[N+](=O)[O-]`, the activation was inactive: -4.04%.

Turning to `C[C@H]1OP(=O)(Oc2ccccc2)[C@H](O)[C@H](O)[C@H]1N=[N+]=[N-]` (stereo partly specified), the activation is inactive: 0.4%.

For the molecule `O=P(Nc1nc2ccccc2s1)(c1ccccc1)c1ccccc1`, the activation was inactive: 1.01%.

As for `O=[As](O)(c1ccccc1)c1ccc(O)cc1`, the activation was inactive: 0.44%.

On to `O=[N+]([O-])c1ccc(O)c(/C=N/Nc2ccc([N+](=O)[O-])cc2[N+](=O)[O-])c1`, for which the activation is inactive: 1.6%.

For `O=[N+]([O-])c1ncn(CCn2cnc([N+](=O)[O-])n2)n1`, the activation was inactive: -0.34%.

`CC(=O)NC(SC(=S)N(C)C)C(Cl)(Cl)Cl` (stereo unspecified): the activation is inactive: 0.31%.

Turning to `O=C(OC1CN2CCC1CC2)c1cccc(Cl)c1` (stereo unspecified), the activation was inactive: -1.08%.

Regarding `C(Cc1nn[nH]n1)Cc1nn[nH]n1`, the activation is inactive: -1.01%.

With `Nc1ccc([As](=O)(O)c2ccc([N+](=O)[O-])cc2)cc1`, the activation was inactive: -1.25%.

Consider `O=P1(N(CCCl)CCCl)OCCCS1` (stereo unspecified), for which the activation was inactive: -2.07%.

On to `O=C(Nc1cc([As](=O)(O)O)ccc1O)c1ccccc1`, for which the activation was inactive: 0.56%.

On to `O=[N+]([O-])c1ncn(CCn2ncnc2[N+](=O)[O-])n1`, for which the activation was inactive: -0.25%.

Consider `CC(C)(C)C(=O)NC(Sc1ccncn1)C(Cl)(Cl)Cl` (stereo unspecified), for which the activation was inactive: 2.27%.

On to `O=C(O)CNc1ccc([As](=O)(O)O)cc1`, for which the activation was inactive: -2.38%.

Regarding `COC(=O)C1(C)COP(=O)(Nc2ccccc2)OC1` (stereo unspecified), the activation is inactive: -0.66%.

In the case of `O=[N+]([O-])c1cccc(NC2=NCC(CBr)S2)c1` (stereo unspecified), the activation was inactive: -0.02%.

Regarding `COc1ccc(C2=NCC(CBr)S2)cc1` (stereo unspecified), the activation was inactive: -0.79%.

In the case of `CCc1nc2c(n1)c1c(non1O)c1c2no[n+]1[O-]`, the activation was inactive: -1.18%.

For `O=[N+]([O-])c1cc([N+](=O)[O-])c(CCNc2ccccc2)c([N+](=O)[O-])c1`, the activation was inactive: -2.52%.

Regarding `Cc1ccc(NP(=O)(Oc2ccccc2)Oc2ccccc2)nc1`, the activation is inactive: -3.58%.

On to `O=[N+]([O-])c1cccc2n[nH]nc12`, for which the activation is inactive: -0.51%.

Consider `CC(=O)N1C2C3N(C(C)=O)C1C1N(C(C)=O)C(C(N1C(C)=O)N3C(C)=O)N2C(C)=O`, for which the activation is inactive: 0.27%.

As to `CCN(/C(=N/P(=O)(N1CCOCC1)N1CCOCC1)N1CCOCC1)c1ccc(OC)cc1`, the activation is inactive: 1.27%.

`C[N+]1=C2C=CC=CC=C2SC12C([N+](=O)[O-])=CC([N+](=O)[O-])=C[C-]2[N+](=O)[O-]` (stereo unspecified): the activation was inactive: -5.26%.

In the case of `Nc1ccc([As](=O)(O)c2ccc(N)cc2)cc1`, the activation was inactive: 1.74%.

For `CC1CCN(C(=O)Oc2c(Cl)cc(Cl)c3cccnc23)CC1`, the activation was inactive: -1.58%.

For `c1cc(-c2nn[nH]n2)ccc1-c1nn[nH]n1`, the activation is inactive: -0.35%.

For `CN(C)C(=O)OCCc1n(C)cc[n+]1C`, the activation is inactive: -2.13%.

For the molecule `CC(C)c1nc(Nc2ccccc2)n(P(=O)(N(C)C)N(C)C)n1`, the activation is inactive: -0.8%.

With `CC(C)=N/N=C(\N)N[N+](=O)[O-]`, the activation was inactive: -0.48%.

`Cc1ccc(N/C(=N/P(=O)(N2CCOCC2)N2CCOCC2)N2CCOCC2)cc1`: the activation was inactive: 0.12%.

Turning to `CN(C(=O)Cc1ccc(Cl)c(Cl)c1)[C@H]1CCCC[C@H]1N1CCCC1`, the activation is inactive: 0.18%.

As for `NC(=O)c1cc([N+](=O)[O-])cc([N+](=O)[O-])c1N`, the activation is inactive: -1.89%.

`CN1CCCC(OC(=O)C(c2ccccc2)c2ccccc2)C1` (stereo unspecified): the activation is inactive: 1.33%.

For `Clc1ccc(Cl)c(NC2=NCC(CBr)S2)c1` (stereo unspecified), the activation is inactive: 0.27%.

Regarding `Cc1ccc(OP(=O)(Nc2nccs2)Oc2ccc(C)cc2)cc1`, the activation was inactive: -0.64%.

Regarding `COc1ccccc1OP(=O)(Nc1ccc(C)cn1)Oc1ccccc1OC`, the activation is inactive: -1%.

In the case of `O=C(NC(Sc1ccncn1)C(Cl)(Cl)Cl)c1ccccc1` (stereo unspecified), the activation was inactive: -2.23%.

Regarding `Oc1ccccc1CNc1ccccn1`, the activation was inactive: 0.41%.

Take `Nc1cc(N)c2nonc2c1[N+](=O)[O-]`: the activation is inactive: 1.47%.

As to `CC(C)CC(=O)NC(Sc1ccc(Cl)cc1)C(Cl)(Cl)Cl` (stereo unspecified), the activation was inactive: 0.15%.

Consider `O=P(Nc1nc2ccc(Cl)cc2s1)(c1ccccc1)c1ccccc1`, for which the activation is inactive: 0.22%.

For `CN(C)P(=O)(N(C)C)n1c(Nc2ccccc2)nnc1-c1ccccc1`, the activation is inactive: 0.28%.

For `CCCC1OP(N)(=O)OCC1CC` (stereo unspecified), the activation is inactive: 1.33%.

In the case of `CC(=O)Nc1ccc([As](=O)(O)O)cc1`, the activation is inactive: 1.06%.

In the case of `O=C(O)c1ccccc1[As](=O)(O)O`, the activation is inactive: -1.41%.

On to `Cc1ccc(NP(=O)(Oc2ccccc2F)Oc2ccccc2F)nc1`, for which the activation was inactive: 0.53%.

In the case of `CN(C(=O)Cc1ccc(Cl)c(Cl)c1)[C@H]1CCCC[C@@H]1N1CCCC1`, the activation is inactive: -0.29%.

`Cc1cc(SC(NC(=O)c2ccc(F)cc2)C(Cl)(Cl)Cl)ncn1` (stereo unspecified): the activation was inactive: -0.67%.

Consider `CCOP(=O)(Nc1ccccc1)OCC`, for which the activation was inactive: 0.95%.

With `Nc1cccc2ccc([As](=O)(O)O)cc12`, the activation was inactive: -1.95%.

Take `CCN(N=Nc1nonc1N)c1nonc1N`: the activation was inactive: -1.64%.

Consider `O=[N+]([O-])c1ccc(-c2cc([N+](=O)[O-])c(O)c([N+](=O)[O-])c2)cc1`, for which the activation is inactive: -2.05%.

`COc1cc(C(=O)NCC2(N3CCOCC3)CCCCC2)ccc1OCC(C)C`: the activation was inactive: 3.12%.

With `O=[As](O)(c1ccc(O)cc1)c1ccccc1O`, the activation was inactive: -1.41%.

Take `C[As](=O)(O)c1cccc(C(=O)O)c1`: the activation is inactive: 0.09%.

Consider `CC(Cc1ccc(O)cc1)NCC(O)c1cc(O)cc(O)c1` (stereo unspecified), for which the activation is inactive: 0.95%.

Take `Cc1ccc(OP(=O)(Nc2ccc([N+](=O)[O-])cn2)Oc2ccc(C)cc2)cc1`: the activation is inactive: -0.63%.

Take `Cc1ccc2nc3c(c(C)c2c1)CC(C(Cl)Cl)S3` (stereo unspecified): the activation was inactive: 2.95%.

As for `ClCCSc1nnc(-c2cccnc2)o1`, the activation is inactive: 0.24%.

Turning to `COC(=O)C1(C)COP(=O)(N2CCCCCC2)OC1` (stereo unspecified), the activation is inactive: -1.96%.

Take `CC(C)c1ccc(OP(=O)(Nc2ccccn2)Oc2ccccc2F)cc1` (stereo unspecified): the activation is inactive: 5.49%.

As for `O=[N+]([O-])c1cc([N+](=O)[O-])c(-c2ccn[nH]2)s1`, the activation was inactive: -0.43%.

On to `CC(C)NC(=O)NP(=O)(Oc1ccccc1)Oc1ccccc1`, for which the activation was inactive: 0.36%.

In the case of `O=C(OC1CN2CCC1CC2)c1cccc2[nH]cnc12` (stereo unspecified), the activation is inactive: -1.59%.

For the molecule `CCN(CC)C(=S)SC(NC=O)C(Cl)(Cl)Cl` (stereo unspecified), the activation is inactive: 0.7%.

For `Cc1c2c(nc3ccccc13)SC(C(Cl)Cl)C2` (stereo unspecified), the activation is inactive: -2.13%.

Take `Cc1cc(=O)[nH]c(N[N+](=O)[O-])n1`: the activation is inactive: -0.9%.
